# Apparent affinities of Ab-14 variants for a coronavirus HR2 peptide

Source: Li et al. 2023 (doi:10.1038/s41467-023-39022-2), MIT Lincoln Laboratory and A-Alpha Bio; data file from the FLAb repository.

Binding partner: SARS-CoV-2 spike HR2 peptide, sequence PDVDLGDISGINAS.

Each scFv is VH, the linker GGGGSGGGGSGGGGS, VL, as in the parent Ab-14, and differs from it in the CDRs of the light chain only.
VH: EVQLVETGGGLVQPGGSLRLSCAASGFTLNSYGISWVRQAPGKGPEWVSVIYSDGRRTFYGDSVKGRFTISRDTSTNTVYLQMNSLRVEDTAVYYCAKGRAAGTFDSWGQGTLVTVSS
VL: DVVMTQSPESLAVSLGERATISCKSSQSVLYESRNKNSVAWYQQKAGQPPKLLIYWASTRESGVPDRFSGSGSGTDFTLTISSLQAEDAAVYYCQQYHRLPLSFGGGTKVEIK

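Phage display of a naive human antibody library on the peptide gave the parent. Designed CDR sequences, proposed from the first random library and measured here. Their group label is 14L_En_Gibbs (En: ensemble of fine-tuned language models; Gibbs: Gibbs sampling). The assay is AlphaSeq: two haploid yeast populations carry antibody and antigen on their surface. The frequency of each diploid, read from paired DNA barcodes, reflects how well the two displayed proteins bind. A regression on co-assayed BCL2-family reference pairs converts the normalised counts of each replicate to an apparent Kd. There are six technical replicates.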

The parent's light chain CDRs are KSSQSVLYESRNKNSVA, WASTRES, QQYHRLPLS; each variant's own CDRs replace them letter for letter.
Scale: log10 of Kd in nM, estimated from mating counts; low values are strong binders.
A pair that was not seen in that replicate is written "n.d."; this usually means weak binding, but a binder can also be missed.

CDR-L1,CDR-L2,CDR-L3,"replicates, log10 nM",empty controls
KLSWKSLGFENRWMAIA,NTKERNA,QQYARLPLS,0.48 0.75 0.42 0.53 0.73 0.58,0 of 18
QLEWDALWGANYDYSVA,AQDVALP,QQYFRLPLI,1.78 1.46 1.21 2.09 1.49 1.14,0 of 18
KLSLSMSFSLEGTRAIA,AGSTRAH,QQYHRLPLT,0.89 0.65 0.70 0.76 0.70 0.53,2 of 18 (2.38)
KLNEYKHETEEKTQNIA,DQTIREP,QQYAHLPLA,-0.16 0.20 -0.21 -0.20 -0.04 0.14,0 of 18
GMSDSMTETIADANHIA,DAEARDV,QQYSRLPLI,0.88 0.80 0.75 0.95 1.04 1.05,1 of 18 (1.99)
QVVDEQWAEGQNIQSIA,EGEVMKD,QQYNRLPLS,1.98 1.94 2.10 1.40 2.15 2.19,0 of 18
NISYLQGEPTNSVNNVA,QTSKRAP,QYYQRLPLC,0.36 0.35 0.37 0.21 0.13 0.47,1 of 18 (2.57)
QIQGKLQEHGNQGANVA,QGVESRN,QQYFRLPLT,0.88 0.87 0.77 0.75 0.59 0.85,2 of 18 (2.70)
KLSWDCTTDLNRMSSIA,ESEVAVD,QQYAHLPLT,n.d. 3.16 2.32 2.65 2.58 2.18,4 of 18 (2.92)
KLYNRGEGSQKVDRSIA,EMQTRCE,QSYQRLPLS,1.21 2.36 n.d. 3.35 0.98 0.94,1 of 18 (2.17)
QMTHPEESFQNNQRSIA,NASASLD,QQYAQLPLM,1.06 1.21 1.40 0.78 1.03 1.38,0 of 18
ALRGVGYDEQVKHSAIA,DGEHLNN,QQYSMLPLS,0.55 0.41 0.44 0.04 0.41 0.46,0 of 18
WLSMWEQSGTRGYSSVA,DTDARMA,QQYFRLPLS,0.60 0.49 0.55 0.18 0.28 0.58,3 of 18 (2.89)
MISMMHAMQYNEESSIA,DAEALNS,QQYFELPLS,n.d. n.d. n.d. n.d. 2.07 n.d.,1 of 18 (1.64)
KLAMILSMWADTYHGVA,DANHKAD,QQYNRLPLS,0.43 0.35 0.43 0.36 0.46 0.96,1 of 18 (1.75)
QIQMWEITLMENINSIA,NSEVIVQ,QSYFRLPLS,n.d. n.d. 1.19 n.d. 1.88 n.d.,0 of 18
KIHCRELMHQGQINNIA,EAAKLVE,QQYALLPLA,0.75 0.57 -0.05 0.26 0.46 0.15,0 of 18
TITGMVEEIETTQKNIA,EGEFRCM,QQYSRLPLS,2.14 n.d. 4.09 0.97 1.99 1.95,1 of 18 (3.88)
NVHALMNHSSDLMQSIA,DEECRDA,QQYERLPLS,1.37 1.34 2.02 1.80 1.74 2.10,0 of 18
QMKMSLLQGIYIKDSIA,SSDIREM,QQYEHLPLI,1.80 1.66 2.05 1.80 1.36 1.67,0 of 18
FFSLIQDSYGEANNSIA,ERNTKAP,QQYGRLPLV,2.27 n.d. 1.44 1.28 1.92 3.99,0 of 18
RIGMNFTWPGNARQNVA,EIQKAID,QQYAHLPLS,2.67 0.93 2.17 0.90 1.50 1.18,0 of 18
NMNVSEDQWPSSKNAIA,QTTCRNL,QQYASLPLS,1.59 1.56 2.92 1.33 1.19 1.27,0 of 18
IVTYAQNDNSLYTNNIA,EGENTLA,QQYFRLPLM,1.47 1.30 1.13 1.26 1.54 1.55,1 of 18 (3.11)
HMRMDCYQYDNYGKAVA,HANQRHN,QQYSRLPFS,1.15 1.27 1.45 0.98 1.16 1.14,0 of 18
RLTEHMYMRAYANAAVA,DASTRND,QQYHRLPLE,0.25 0.50 0.56 0.46 0.80 0.71,2 of 18 (2.88)
AVSYQLRPGREIQNPIA,EGSHRAA,QQYDRLPLG,0.45 0.54 0.52 0.38 0.53 0.55,2 of 18 (1.57)
QLPNYRPDGYLQKNNVA,EGTERSH,QQYMRLPLF,-0.07 0.35 0.64 -0.04 0.49 1.03,0 of 18
KLGMWMYEPTEAKYAVA,QDEMRVH,QQYDRLPLI,1.56 n.d. n.d. n.d. 2.45 n.d.,0 of 18
NLQNIGMENSVWKNAIA,DVNIKES,QQYWRLPLL,0.49 0.76 0.41 0.03 0.44 0.67,0 of 18
KITDKFLGLGNGRQNIA,HAMVAVE,QQYQQLPLA,1.17 0.93 0.85 0.70 1.17 1.23,4 of 18 (2.71)
KLDLITNPGNLMHNSVA,AATVKWE,QQYSQLPLS,1.13 0.85 0.94 0.74 0.74 1.03,1 of 18 (3.42)
NLGQKMSLETEQRNSIA,DMTVREY,QQYSRIPLI,1.06 1.39 0.74 0.62 0.40 0.87,1 of 18 (1.73)
RFDMAMPYAHSNINSIA,DKAIQAD,QQYNRLPLS,-0.01 -0.16 -0.12 -0.21 -0.35 0.14,0 of 18
HLMPLNLHYTGTLNSVA,EAEERQE,QHYARLPLM,n.d. n.d. n.d. 1.33 n.d. 2.58,0 of 18
IIAENSDDITEKQNSIA,ETSQVTS,QQYHLLPLA,1.47 1.24 1.21 1.29 0.67 1.25,0 of 18
KLDSQYQHGTNQKSAMA,SASVSTQ,QQYSRLPLS,n.d. n.d. n.d. n.d. n.d. n.d.,0 of 18
SLNKEAWDFNQTWNAVA,DHSMRVT,QDYIRLPLT,n.d. n.d. n.d. n.d. n.d. n.d.,0 of 18
KLSLSMSYSHEGTRHIA,NGSNRCI,QQYHRLPLI,2.06 n.d. n.d. 2.42 3.99 n.d.,2 of 18 (2.79)
QIQGKLQEHGNQGANVA,QGVESKN,QQYFRLPLT,1.64 1.05 1.52 1.43 1.73 1.62,1 of 18 (3.80)
KLASRQYQFGANHQNIA,DATSSMN,QQYMHLPFT,-0.30 -0.32 -0.05 -0.54 0.00 0.02,1 of 18 (1.84)
KFSQSKEGVTYEGESIA,GSVTIQE,QQYDRLPLA,2.05 n.d. n.d. 2.05 1.74 n.d.,0 of 18
HMKDEPGLGPQTYSSVA,HAEIREP,QQYYRLPLM,0.27 -0.05 -0.18 0.04 -0.16 0.00,0 of 18
ALREDFYQEQVEHSAIA,DGEHLNN,QQYSMLPLS,0.32 0.75 0.56 0.56 0.46 0.76,0 of 18

Background: pairings of all light chain designs with three empty control strains gave a value in 4% of cases (median 2.64, 5th percentile 1.59). Values in that range, when seen in few replicates, are hard to tell from nonspecific mating. Also given: how often the same scFv was detected with the empty control strains, with their mean in brackets.
A sequence measured in both rounds can read differently, since the two assays cover different ranges.
The parent sequence was in this pool as ten entries: three were never detected, three once, and four in most replicates, with averages from 0.34 to 2.37.
The authors' rule: three or more of the six replicates give a measured affinity, fewer mean a poor binder.